Reference: patent US20150005307A1, “Drug Delivery Technology” (LondonPharma Ltd., priority 2011, published 2015)

Test: Solubility of PDE5 inhibitors in formulation carriers and co-solvents

For sildenafil mesylate, the “solubility with 20% w/w ethanol” value (20% w/w ethanol, compared with 100 mg/ml in water) was “unaltered”, the “solubility with co-solvent Transcutol HP” value (Transcutol HP (diethylene glycol monoethyl ether Ph Eur) 20% w/w) was 60 mg/mL and the “solubility in aqueous formulations” value (aqueous formulations) was “up to 100 mg/ml”. The “solubility with co-solvent glycerol” value (glycerol 20% w/w) was 60 mg/mL, the “effect of caffeine and sodium dihydrogen phosphate on solubility” value (inclusion of caffeine and sodium dihydrogen phosphate) was “did not appear to significantly improve the solubility” and the “solubility with co-solvent propylene glycol” value (propylene glycol 20% w/w) was 80 mg/mL. For the same substance, the solubility in water (water) was “up to 100 mg/ml”.
